Experiments:
[1] = BBB permeability in brain-specific Gdnf knockdown mice (brain distribution of fluorescein and FITC-Dex); settings: Gdnf silencing (shGdnf) vs shNC mice; i.v., 30 min
[2] = not told

## FITC-Dextran 3–5 kDa
[1]
  brain-to-plasma concentration ratios: notable increases
[2]
  Papp Mean: 32.29 ×10⁻⁶ cm/s

From paper PMC11524583, “Neurons enhance blood–brain barrier function via upregulating claudin-5 and VE-cadherin expression due to glial cell line-derived neurotrophic factor secretion” (eLife, 2024)
